In patent publication US20200129597A1, “MODULATION OF FACTOR Xa INHIBITOR-MEDIATED BLOOD LOSS BY PARTIAL AND TRANSIENT ADMINISTRATION OF ANTIDOTE” (Portola Pharmaceuticals, Inc., priority 2012, published 2020):

Columns and labels:
[1] = system: activated partial thromboplastin time (aPTT); assay: Activated partial thromboplastin time in rabbit liver laceration model; assay type: in vivo
Description: (§1) Anesthetized rabbits were administered vehicle or 1 mg/kg rivaroxaban via IV bolus injection. […] Blood loss due to rivaroxaban anticoagulation represented approximately 10% of the animal's total blood volume. Total rivaroxaban concentration in plasma was measured by LC-MS/MS. Free fraction of rivaroxaban (non-protein, non-r-Antidote bound) was first separated using ultra-filtration followed by LC-MS/MS quantitation. Anti-fXa activity was measured using a modified chromogenic LMW heparin kit. PT and aPTT was measured using commercial reagents (HemosIL).
For human in vitro and rat ex vivo experiments, PT was measured using MLA Electra 800 automatic coagulation timer. Innovin was automatically dispensed to plasma samples (100 μL) per manufacturer's instructions. […] For rabbit experiments, PT and aPTT were measured using a Beckman Coulter ACL Elite instrument with HemosIL reagents (available commercially from Instrumentation Laboratories). Whole blood INR (International Normalized Ratio) for animal samples were measured by Hemchron Jr. Signature Cartridges (International Technidyne Corporation) according to manufacturer's instructions.
(§2) Rivaroxaban (1 mg/kg) or vehicle was dosed to anesthetized rabbits by IV bolus over 2 minutes via marginal ear vein catheter. […] Serial blood samples were collected at 0, 30, 35, and 50 minutes post rivaroxaban. Measurements included reduction in blood loss, decrease in unbound rivaroxaban in the plasma using equilibrium dialysis method, anti-fXa activity, PT and aPTT. The method for measuring PT is described previously in Example 6.

[2] = Anti-fXa activity in rivaroxaban anticoagulated rabbits; assay type: in vivo; details: r-Antidote 75 mg/rabbit, rivaroxaban 1 mg/kg
Description: as §1, §2

blood loss = assay: Rat tail transection model, r-Antidote bolus plus infusion after enoxaparin or fondaparinux; assay type: in vivo
Description: Enoxaparin (4.5 mg/kg) or vehicle was dosed by IV bolus over 5 min, followed by treatment with vehicle or two different doses of r-Antidotc (2 mg/rat bolus plus 2 mg/hr infusion and 4 mg/rat bolus plus 4 mg/hr infusion) starting at 10 min. Blood loss was measured for 15 min as described under Methods section. […] Blood loss was measured as in FIG. 16A. Protamine was dosed as an IV bolus only (0.9 mg/rat). […] The anti-fXa activity in fondaparinux anticoagulated rats (FIG. 16B) at different time points are presented for Treat-I: (not shown in anti-fXa), Treat-II (□), Treat-III (⋄), and Treat-IV (∇). Anti-fXa activity was normalized to the activity of Treat-II at 5 min time point. *** P-value (Treat-III vs. Treat-II)≤0.0001.
In this example, the ability of r-Antidote to restore hemostasis in a rat tail transection model following treatment with enoxaparin or fondaparinux was tested. Unlike in the case of rivaroxaban, administration of enoxaparin or fondaparinux without concomitant administration of anti-platelet agent was sufficient to establish a reproducible pattern of bleeding in the animals. […] In parallel to corrections in blood loss, the anti-fXa activity was reduced in a dose-dependent manner (data not shown).
The collected blood samples were processed by freezing the samples at −80° C. to lyse erythrocytes. Hemoglobin concentration and corresponding blood volume were quantified spectrophotometrically (Absorbance at 490 nm) from a standard curve constructed with known volumes of blood.

[3] = Single ascending dose study: thrombin generation and anti-fXa activity with exogenous rivaroxaban in subject plasma; assay type: in vivo, human; details: exogenous rivaroxaban 50 ng/mL added to subject plasma

B1: r-Antidote: processed two-chain polypeptide of SEQ ID NO: 3; modified, catalytically inactive human recombinant fXa lacking the Gla domain (protein)
chain: ANSFLFWNKYKDGDQCETSPCQNQGKCKDGLGEYTCTCLEGFEGKNCELFTRKLCSLDNGDCDQFCHEEQNSVVCSCARGYTLADNGKACIPTGPYPCGKQTLERIVGGQECKDGECPWQALLINEENEGFCGGTILSEFYILTAAHCLYQAKRFKVRVGDRNTEQEEGGEAVHEVEVVIKHNRFTKETYDFDIAVLRLKTPITFRMNVAPACLPERDWAESTLMTQKTGIVSGFGRTHEKGRQSTRLKMLEVPYVDRNSCKLSSSFIITQNMFCAGYDTKQEDACQGDAGGPHVTRFKDTYFVTGIVSWGEGCARKGKYGIYTKVTAFLKWIDRSMKTRGLPKAKSHAPEVITSSPLK
modifications: processed two-chain form
Activated Partial Thromboplastin Times ([1]; 0 minutes post rivaroxaban): 28 ± 4 s | Activated Partial Thromboplastin Times ([1]; 30 minutes post rivaroxaban (before treatment)): 27 ± 4 s | Activated Partial Thromboplastin Times ([1]; 35 minutes post rivaroxaban): 27 ± 3 s | Activated Partial Thromboplastin Times ([1]; 50 minutes post rivaroxaban): 25 ± 3 s | reduction of aPTT prolongation ([1]; rivaroxaban rabbits (Table 8)): 60% | decrease (reversal) of aPTT ([1]; rivaroxaban rabbits, r-Antidote 75 mg/rabbit, rfVIIa 150 μg/kg): 66% | decrease of peak anti-fXa activity [2]: 98% | correction in blood loss (blood loss; enoxaparin 4.5 mg/kg, r-Antidote 2 mg/rat bolus plus 2 mg/hr infusion): 42% | correction of increase in blood loss (blood loss; enoxaparin 4.5 mg/kg, r-Antidote 4 mg/rat bolus plus 4 mg/hr infusion): completely corrected the increase in blood loss to baseline levels | effect on bleeding (blood loss; fondaparinux 25 mg/kg, r-Antidote 6 mg/rat bolus plus 6 mg/hr infusion): complete cessation of bleeding | thrombin generation and anti-fXa activity of rivaroxaban [3]: reversed in a dose-dependent manner
